Results on one substance are retold here after US12162901B2, “N-acetylated sialic acids and related sialosides” (priority 2016, dated 2024).

Assay in all cases: purified protein, by the assay type
What all share (conditions): other: SpNanC, apparent, MES buffer pH 6.5, 37° C., 10 min

The subject of series [1] is CC(=O)N[C@H]1[C@H]([C@H](O)[C@H](O)CO)O[C@@](O[C@H]2[C@@H](O)[C@@H](CO)O[C@@H](Oc3ccc([N+](=O)[O-])cc3)[C@@H]2O)(C(=O)O)C[C@@H]1O.
In series [2] the test system is CC(=O)NC[C@@H](O)[C@@H](O)[C@@H]1O[C@@](O[C@H]2[C@@H](O)[C@@H](CO)O[C@@H](Oc3ccc([N+](=O)[O-])cc3)[C@@H]2O)(C(=O)O)C[C@H](O)[C@H]1NC(C)=O.
The subject of series [3] is CC(=O)N[C@H]1[C@H]([C@H](O)[C@H](O)COC(C)=O)O[C@@](O[C@H]2[C@@H](O)[C@@H](CO)O[C@@H](Oc3ccc([N+](=O)[O-])cc3)[C@@H]2O)(C(=O)O)C[C@@H]1O.

Broadly, the Km is the substrate concentration at which the rate is half of its maximum. The kcat/Km is the second-order rate constant that governs catalysis at low substrate concentration.

Several values for one entry are separate records, joined by “and”; a condition that tells them apart may be missing. Equal values may be shown once.

Turning to SpNanC (Streptococcus pneumoniae TIGR4), the results for the Km in series [1], in series [2] and in series [3] were 2660 ± 300 µM, 2600 ± 400 µM and 1250 ± 200 µM, respectively. In addition, the catalytic efficiency (kcat/Km) in series [1] is 130000 M⁻¹ s⁻¹ and 137000 M⁻¹ s⁻¹; in series [2] it was 130000 M⁻¹ s⁻¹; in series [3], 302000 M⁻¹ s⁻¹.
